Test results taken from patent publication US7629318B2, “Immunosuppressant compounds, methods and uses related thereto” (priority 2002, dated 2009).

Tested on: IL-2 secretion from the hybridoma cell line T-Hyb 1
Details: for Immunsupressive assays Thyb1 (Max) % Inhibition: Thyb1, maximal inhibition; for immunosuppressive properties as measured by IL-2 secretion, versus Arg equivalent: dose-response curve, compared to the Arg-containing peptide; for IC50: read-out: Immunsupressive assays Thyb1 (IC50), Thyb1

Structure (SMILES) | Immunsupressive assays Thyb1 (Max) % Inhibition [%] | immunosuppressive properties as measured by IL-2 secretion, versus Arg equivalent | IC50 [µM]
CSCC[C@H](NC(=O)C1c2ccccc2CN1C(=O)[C@@H](NC(=O)[C@H](CC1CCCCC1)NC(C)=O)C1CCN(C(=N)N)CC1)C(=O)N1CC[C@H](c2ccccc2)[C@H]1C(=O)N[C@@H](CO)c1nc(C(=O)N(C)C)c(C(C)C)o1 (stereo partly drawn) [Compound P41-1, Ac-Cha-Gpg-Disc-Met-βPhPro-[S(oxaz)L]-NMe2] | 83 | improved immunosuppressive properties | 47
CCCC[C@H](NC(=O)[C@@H]1Cc2ccccc2CN1C(=O)[C@@H](NC(=O)[C@H](CC1CCCCC1)NC(C)=O)C1CCN(C(=N)N)CC1)C(=O)NCc1ccccc1 [Compound P68, Ac-Cha-Gpg-Tic-Nle-N(H)Bn] | 106 | – | 39
CC(=O)N[C@@H](CC1CCCCC1)C(=O)N[C@H](C(=O)N1Cc2ccccc2C[C@H]1C(=O)N[C@@H](CC[S+](C)[O-])C(=O)N1CC[C@H](c2ccccc2)[C@H]1C(=O)N[C@@H](CO)c1nc(C(=O)N(C)C)c(C(C)C)o1)C1CCN(C(=N)N)CC1 (stereo partly drawn) [Compound P47, Ac-Cha-Gpg-Tic-Met(O)-βPhPro-[S(oxaz)L]-NMe2] | 83 | – | 62
CSCC[C@H](NC(=O)[C@@H]1Cc2ccccc2CN1C(=O)[C@H](CCCNC(=N)N)NC(=O)[C@H](CC1CCCCC1)NC(C)=O)C(=O)N1CC[C@H](c2ccccc2)[C@H]1C(N)=O [Compound P31, Ac-Cha-Arg-Tic-Met-βPhPro-NH2] | 64 | – | 55
CCCC[C@H](NC(=O)[C@@H]1Cc2ccccc2CN1C(=O)[C@H](CCCNC(=N)N)NC(=O)[C@H](CC1CCCCC1)NC(C)=O)C(=O)NCCc1ccccc1 [Compound P82, Ac-Cha-Arg-Tic-Nle-N(H)CH2CH2Ph] | 100 | – | 78
CCCC[C@H](NC(=O)[C@@H]1Cc2ccccc2CN1C(=O)[C@H](CCCNC(=N)N)NC(=O)[C@H](CC1CCCCC1)NC(C)=O)C(=O)N1CC[C@H](c2ccccc2)[C@H]1C(=O)N[C@@H](CO)c1nc(C(=O)N(C)C)c(C(C)C)o1 [Compound P51, Ac-Cha-Arg-Tic-Nle-βPhPro-[S(oxaz)L]-NMe2] | 88 | – | 62
CCCC[C@H](NC(=O)[C@@H]1Cc2ccccc2CN1C(=O)[C@H](CCCNC(=N)N)NC(=O)[C@H](CC1CCCCC1)NC(C)=O)C(=O)N(C)CCc1ccccc1 [Compound P83, Ac-Cha-Arg-Tic-Nle-N(Me)CH2CH2Ph] | 100 | – | 46
CCCC[C@H](NC(=O)[C@@H]1Cc2ccccc2CN1C(=O)[C@@H](NC(=O)[C@H](CC1CCCCC1)NC(C)=O)C1CCN(C(=N)N)CC1)C(=O)NCCc1ccccc1 [Compound P69, Ac-Cha-Gpg-Tic-Nle-N(H)CH2CH2Ph] | 96 | improved immunosuppressive properties | 42
CSCC[C@H](NC(=O)[C@@H]1Cc2ccccc2CN1C(=O)[C@@H](NC(=O)[C@H](CC1CCCCC1)NC(C)=O)C1CCN(C(=N)N)CC1)C(=O)N(CCOCCO)Cc1ccccc1 [Compound P102, Ac-Cha-Gpg-Tic-Met-N(Bn)CH2CH2OCH2CH2OH] | 76 | – | 81
CSCC[C@H](NC(=O)C1c2ccccc2CN1C(=O)[C@H](CCCNC(=N)N)NC(=O)[C@H](CC1CCCCC1)NC(C)=O)C(=O)N1CC[C@H](c2ccccc2)[C@H]1C(=O)N[C@@H](CO)c1nc(C(=O)N(C)C)c(C(C)C)o1 (stereo partly drawn) [Compound P40-1, Ac-Cha-Arg-Disc-Met-βPhPro-[S(oxaz)L]NMe2] | 81 | – | 59
CSCC[C@H](NC(=O)[C@@H]1Cc2ccccc2CN1C(=O)[C@@H](NC(=O)[C@H](CC1CCCCC1)NC(C)=O)C1CCN(C(=N)N)CC1)C(=O)N1CC[C@H](c2ccccc2)[C@H]1C(=O)N[C@@H](CO)c1nc(C(=O)N(C)C)c(C(C)C)o1 [Compound P60, Ac-Cha-Gpg-Tic-Met-βPhPro-[S(oxaz)L]-NMe2] | 47 | – | 30
